# Laboratory results as given in patent publication US20050069522A1, “Combination pharmaceutical agents as inhibitors of HCV replication” (priority 2002, published 2005).
# Test system: HCV replicon
# Experiment: Combination studies in the HCV replicon system (FRET assay)
# Assay type: cell-based
# [1] = combined with Compound 81, molar ratio 1:1 (first number Compound 81)
# [2] = combined with Compound 81, molar ratio 1:2.5 (first number Compound 81)
# [3] = combined with Compound 81, molar ratio 2.5:1 (first number Compound 81)
substance,measurement,setting,value
"Intron A: IFN-α2b, Schering-Plough Corporation (Table 1)",response in combination with Compound 81,"all drug ratios, 50 and 75% effective levels",synergistic response
same,Overall Result,"combined with Compound 81, molar ratio 1:1",Synergistic
same,CI at HCV inhibition of: 50%,[1],0.62 +/− 0.08
same,CI at HCV inhibition of: 75%,[1],0.55 +/− 0.09
same,Overall Result,"combined with Compound 81, molar ratio 1:2.5",Synergistic
same,CI at HCV inhibition of: 50%,[2],0.7 +/− 0.07
same,CI at HCV inhibition of: 75%,[2],0.55 +/− 0.08
same,Overall Result,"combined with Compound 81, molar ratio 2.5:1",Synergistic
same,CI at HCV inhibition of: 50%,[3],0.65 +/− 0.08
same,CI at HCV inhibition of: 75%,[3],0.51 +/− 0.07
same,EC50 in monotherapy,"monotherapy, 72 h, FRET assay",9 U/ml
